Data on 21 compounds can be found in US7452862B2, “Conformationally-controlled biologically active macrocyclic small molecules as motilin antagonists or ghrelin agonists” (Tranzyme Pharma, Inc., priority 2003, dated 2008).

Amino acid sequences for entries named in this document (tags omitted).
UniProt O43193, whole entry: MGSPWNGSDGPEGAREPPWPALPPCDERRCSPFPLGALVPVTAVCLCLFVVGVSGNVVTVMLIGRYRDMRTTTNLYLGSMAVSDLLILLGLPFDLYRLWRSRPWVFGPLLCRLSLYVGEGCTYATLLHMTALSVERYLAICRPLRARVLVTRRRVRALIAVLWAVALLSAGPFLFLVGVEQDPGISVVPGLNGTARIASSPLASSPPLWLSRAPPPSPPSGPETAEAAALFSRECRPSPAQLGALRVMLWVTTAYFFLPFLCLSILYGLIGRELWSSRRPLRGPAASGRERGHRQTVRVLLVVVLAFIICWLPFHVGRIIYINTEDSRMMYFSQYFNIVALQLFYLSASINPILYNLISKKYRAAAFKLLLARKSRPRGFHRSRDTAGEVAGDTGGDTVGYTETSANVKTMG
UniProt Q92847, whole entry: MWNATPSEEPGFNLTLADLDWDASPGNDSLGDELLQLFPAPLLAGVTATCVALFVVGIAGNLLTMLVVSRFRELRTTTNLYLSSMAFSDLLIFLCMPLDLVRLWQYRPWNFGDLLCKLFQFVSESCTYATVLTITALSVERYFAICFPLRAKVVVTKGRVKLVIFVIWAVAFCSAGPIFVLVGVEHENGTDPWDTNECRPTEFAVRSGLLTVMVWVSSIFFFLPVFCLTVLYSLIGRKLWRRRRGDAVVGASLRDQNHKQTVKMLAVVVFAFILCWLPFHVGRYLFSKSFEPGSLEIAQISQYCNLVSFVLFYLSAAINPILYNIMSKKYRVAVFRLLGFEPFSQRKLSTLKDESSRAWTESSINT

In one assay the target is human motilin receptor (Homo sapiens, UniProt O43193). Put plainly: Competitive radioligand binding assay (motilin receptor), Method B1. The note with it: read-out: Binding Affinity [Ki (μM)], [125I]-motilin, CHO cell membranes.
Assay [1] has as its target human ghrelin receptor (hGHS-R1a) (Homo sapiens, UniProt Q92847). Put plainly: Competitive radioligand binding assay (ghrelin receptor), Method B2. The note with it: read-out: Binding Affinity [Ki (μM)], [125I]-ghrelin, HEK-293 cell membranes.

Structures are written as SMILES.

`CC(C)[C@H]1NC(=O)[C@@H](Cc2cccc(F)c2)NCCOc2ccccc2C[C@H](C)CNC(=O)[C@H](CN(C)C)NC1=O`: the Ki on human motilin receptor was 0.001 to 0.1 µM.
As for `CCC[C@@H]1NC(=O)[C@@H](C(C)C)NC(=O)[C@@H](Cc2cccc(F)c2)NCCOc2ccccc2C(C)CCNC1=O` (stereo partly drawn), on human motilin receptor, the Ki fell in the range of 0.001 to 0.1 µM.
As for `CCC(C)C1NCCOc2ccccc2C(C)(C)CCNC(=O)C(Cc2cccc(Cl)c2)NC(=O)C2(CCCC2)NC1=O` (stereo not drawn), in assay [1], the Ki is 0.1 to 1 µM.
The same measure, in the same setting: next, `CC(C)CC1NCc2ccccc2Sc2ccccc2CNC(=O)C(Cc2ccccc2)NC(=O)C2(CCCC2)NC1=O` (stereo not drawn): 1 to 10 µM; `CCC(C)[C@@H]1NC[C@H](C)Oc2ccccc2CCCNC(=O)[C@@H](Cc2cccc(Cl)c2)NC(=O)C2(CCCC2)NC1=O` (stereo partly drawn): 0.001 to 0.1 µM.
Same read-out and setting: under `CC1CNC(C2CC2)C(=O)N(C)C(C)C(=O)NC(Cc2ccc(F)cc2)C(=O)NCCCc2ccccc2O1` (stereo not drawn) [compound 244] stands 0.001 to 0.1 µM; under `CCC[C@@H]1NCc2ccccc2Sc2ccccc2CNC(=O)[C@@H](Cc2ccccc2)NC(=O)CN(C)C1=O`, 0.1 to 1 µM.
As to `CCC(C)C1NCCCCCCCNC(=O)C(Cc2cccc(Cl)c2)NC(=O)C2(CCCC2)NC1=O` (stereo not drawn), the Ki in assay [1] is 0.1 to 1 µM.
Turning to `CC(C)[C@H]1NC(=O)[C@@H](Cc2cccc(Cl)c2)NCC[C@@H]2O[C@H](CNC(=O)[C@H](CC3CC3)NC1=O)[C@@H](O)[C@H]2O`, the Ki at human motilin receptor was 0.1 to 1 µM.
The same measure, in the same setting: under `CC(C)[C@H]1NC(=O)[C@@H](Cc2cccc(Cl)c2)NCCOc2ccccc2C(C)(C)CCNC(=O)[C@H](CC2CC2)NC1=O` stands 0.001 to 0.1 µM; under `CCC(C)[C@@H]1NC(=O)[C@@H](Cc2ccccc2)NCc2ccccc2Sc2ccccc2CNC(=O)[C@H](Cc2ccc(O)cc2)NC1=O` (stereo partly drawn), 1 to 10 µM.
As to `CCC(C)C1NCCCCCCCCNC(=O)C(Cc2cccc(Cl)c2)NC(=O)C2(CCCC2)NC1=O` (stereo not drawn), the Ki in assay [1] lay within 0.1 to 1 µM.
The same measure, in the same setting: next, `CCC(C)C1NCCCCCCNC(=O)C(Cc2cccc(Cl)c2)NC(=O)C2(CCCC2)NC1=O` (stereo not drawn): 0.1 to 1 µM.
Take `CCC[C@@H]1NC(=O)[C@@H](C(C)C)NC(=O)[C@@H](Cc2ccc(O)cc2)NCc2csc(n2)CNC1=O`: the Ki at human motilin receptor was in the range of 0.1 to 1 µM.
Same read-out and setting: under `CCC[C@@H]1NC(=O)[C@@H](C(C)C)NC(=O)[C@@H](Cc2ccc(O)cc2)NCc2coc(n2)CNC1=O` stands 0.1 to 1 µM.
As to `CC1CCNC(=O)[C@@H](Cc2ccc(F)cc2)NC(=O)[C@@H](C)N(C)C(=O)[C@H](C2CC2)NCCOc2ccccc21` (stereo partly drawn), the Ki in assay [1] is 0.1 to 1 µM.
On the same count and under the same terms, under `C[C@@H]1C(=O)N[C@H](Cc2ccc(F)cc2)C(=O)NCCC(C)(C)c2ccccc2OCCN[C@@H](C2CC2)C(=O)N1C` stands 0.1 to 1 µM.
Consider `CCC[C@@H]1NC(=O)[C@@H](C(C)C)NC(=O)[C@@H](Cc2cccc(Cl)c2)NCCOc2ccccc2C(C)CCNC1=O` (stereo partly drawn), for which the Ki at human motilin receptor is 0.001 to 0.1 µM.
Still for that read-out and setting: next, `CCC[C@@H]1NC(=O)[C@@H](C(C)C)NC(=O)[C@@H](Cc2c[nH]cn2)NCc2ccccc2Sc2ccccc2CNC1=O`: 0.1 to 1 µM.
Consider `CC(C)[C@H]1NC(=O)[C@@H](Cc2cccc(Cl)c2)N[C@H](C)COc2ccccc2CCCNC(=O)[C@H](CNC(=N)N)NC1=O`, for which the Ki at human motilin receptor lay in the range of 0.1 to 1 µM.
With `CCC(C)C1NCCCCCNC(=O)C(Cc2cccc(Cl)c2)NC(=O)C2(CCCC2)NC1=O` (stereo not drawn), the Ki in assay [1] fell in the range of 1 to 10 µM.

By Ki is commonly meant the equilibrium dissociation constant of an inhibitor or competing ligand from its target.
